Data set [1] relates to colon cancer HCT-116 cells. Nature of the data set: MTT growth assay in colon cancer HCT-116 cells. Particulars: for inhibition of growth (MTT): increasing doses, FIG. 3. Type of data set: cell-based. As for the experimental part: (§1) Growth inhibition assay included the following aspects. […] At the end of the treatment period, cells were incubated with 10% of 5 mg/mL stock of MTT and incubated for 3 hours at 37° C.

Chains of the proteins cited; added tags and fusions are not shown. Residues count along the entry.
UniProt P21860, 20-1342: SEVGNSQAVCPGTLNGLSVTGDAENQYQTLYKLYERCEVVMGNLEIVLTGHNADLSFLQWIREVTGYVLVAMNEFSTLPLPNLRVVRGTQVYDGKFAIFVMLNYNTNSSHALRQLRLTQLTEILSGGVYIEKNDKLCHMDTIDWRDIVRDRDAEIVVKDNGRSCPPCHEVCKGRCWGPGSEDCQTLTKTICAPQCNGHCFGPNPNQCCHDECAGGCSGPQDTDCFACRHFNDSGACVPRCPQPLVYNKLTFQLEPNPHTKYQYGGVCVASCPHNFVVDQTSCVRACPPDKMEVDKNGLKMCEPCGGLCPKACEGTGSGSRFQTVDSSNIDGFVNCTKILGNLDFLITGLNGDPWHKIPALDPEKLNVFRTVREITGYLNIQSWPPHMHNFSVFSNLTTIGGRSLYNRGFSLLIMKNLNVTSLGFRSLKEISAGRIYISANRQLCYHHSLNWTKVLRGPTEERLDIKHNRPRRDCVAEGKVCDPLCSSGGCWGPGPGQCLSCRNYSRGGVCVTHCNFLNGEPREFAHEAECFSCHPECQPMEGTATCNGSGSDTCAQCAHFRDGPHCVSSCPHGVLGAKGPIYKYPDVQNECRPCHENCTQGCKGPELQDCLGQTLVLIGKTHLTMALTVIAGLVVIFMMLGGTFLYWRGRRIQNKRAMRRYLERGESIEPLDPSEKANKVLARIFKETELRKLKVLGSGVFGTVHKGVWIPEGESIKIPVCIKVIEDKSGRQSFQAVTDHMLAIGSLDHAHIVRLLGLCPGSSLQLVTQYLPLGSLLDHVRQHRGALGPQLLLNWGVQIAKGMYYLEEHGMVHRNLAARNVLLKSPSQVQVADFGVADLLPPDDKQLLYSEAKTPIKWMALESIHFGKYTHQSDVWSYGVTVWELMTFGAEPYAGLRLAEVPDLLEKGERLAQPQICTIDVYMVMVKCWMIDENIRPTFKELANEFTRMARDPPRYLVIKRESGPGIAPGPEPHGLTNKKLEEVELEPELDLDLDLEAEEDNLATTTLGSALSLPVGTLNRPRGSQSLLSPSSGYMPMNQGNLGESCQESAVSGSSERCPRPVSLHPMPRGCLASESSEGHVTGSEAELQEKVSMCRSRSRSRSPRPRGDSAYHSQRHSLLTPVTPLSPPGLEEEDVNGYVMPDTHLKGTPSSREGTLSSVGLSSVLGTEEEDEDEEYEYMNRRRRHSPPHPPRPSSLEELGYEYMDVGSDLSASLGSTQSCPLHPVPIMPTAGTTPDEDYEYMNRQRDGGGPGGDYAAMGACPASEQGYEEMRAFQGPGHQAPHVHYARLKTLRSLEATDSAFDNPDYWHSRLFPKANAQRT

The subject of the next data set is c-Src. Put plainly: TGF-α-induced phosphorylation of Src in HCT-116 cells (Western blot). The settings on record: prior exposure, FIG. 5. Type of data set: cell-based. The text has this:
Referring now to FIG. 5, TGF-α markedly stimulates phosphorylation of Tyr416 of c-Src.
(§2) Western blot analysis included the following aspects. […] Cancer Lett 2009.

The test system of data set [2] is breast cancer SKBR-3 cells. Put plainly: MTT growth assay in breast cancer SKBR-3 cells. Type of data set: cell-based, human. Particulars: increasing concentrations, 48 h; FIG. 7. Here is the method: In various embodiments, different modified ectodomains of EGFR are effective in inhibiting the growth of HER-2 as well as HER-3 expressing cells.
as §1
(Tetrazolium dyes change colour on reduction, which living cells bring about.)

The next data set has as its target T1, HER-2 (Homo sapiens, UniProt P04626).
T1 construct: endogenous in cells; host or cells: MDA-MB-453
Nature of the data set: Heregulin-induced phosphorylation of HER-2 in MDA-MB-453 cells. Type of data set: cell-based. Particulars: preincubation, then heregulin, FIG. 8, FIG. 19.
Excerpt: (§3) The breast cancer MDA-MB-453 cells contain high levels of HER-2 and HER-3. One of the ligands of HER-3 is heregulin. Binding of heregulin HER-3 leads to activation and subsequent heterodimerization of HER-3 with one or more EGFR family members. EBIP is also effective in abrogating heregulin-induced phosphorylation of HER-2 and HER-3 in MDA-MB-453 cells.
as §2

For a further data set, the target named is T2, HER-3 (Homo sapiens, UniProt P21860).
T2 construct: endogenous in cells; host or cells: MDA-MB-453
Nature of the data set: Heregulin-induced phosphorylation of HER-3 in MDA-MB-453 cells. In kind it is cell-based. Particulars: preincubation, then heregulin, FIG. 8, FIG. 19.
Excerpt: as §3, §2

In data set [3] the target is T3, EGFR (Homo sapiens, UniProt P00533). Put plainly: TGF-α-induced tyrosine phosphorylation of EGFR (Western blot). In kind it is cell-based. The arrangement: endogenous in cells. The settings on record: preincubation 10 μg/ml for 30 min; 10 nM TGF-α for 10 min; FIG. 4.
Excerpt: Accordingly, in various embodiments the “U” region in elicits the growth inhibitory properties of ERRP and human EGFR-448+U (EBIP). ERRP and EBIP (hEGFR1-448+U) may also attenuate TGF-α-induced activation of EGFR as determined by examining the levels of the tyrosine phosphorylated form of EGFR, as illustrated in FIG. 4. […] In the short-term, the levels of total EGFR (unphosphorylated) remain unaffected by this treatment (FIG. 4).
as §2
On the technique in general: A western blot detects proteins with antibodies after separation by electrophoresis.

Data set [4] has as its system Erks (extracellular signal-regulated kinases). Nature of the data set: TGF-α-induced phosphorylation of ERKs in HCT-116 cells (Western blot). Type of data set: cell-based. The settings on record: prior exposure.
Excerpt: As observed for EGFR and Src phosphorylation, TGF-α markedly stimulates phosphorylation of Erks (extracellular signal-regulated kinases).
as §2

The test system of data set [5] is breast cancer SKBR cell xenografts. Put plainly: SKBR cell xenografts in SCID mice. Type of data set: in vivo. Particulars: vs vehicle, FIG. 9. The source says:
SKBR cells express high levels of HER-2 but contain little no HER-1/EGFR or HER-3. […] At the end of the 40 day experimental period, intratumoral (i.t.) injection of ERRP causes a little over 50% inhibition of tumor growth, when compared with the controls (FIG. 9).

A further data set relates to MDA-MB-468 cells. Put plainly: MTT growth assay and CalcuSyn synergy analysis in MDA-MB-468 cells. The settings on record: for EBIP (Fa): MDA-MB-468. In kind it is cell-based, human. As for the experimental part:
as §1
(§4) Analysis of interaction between two drugs included the following aspects. Combination index (CI) method adapted for in vitro anticancer drug testing was used to determine the nature of interaction between the two agents as described by Majumdar APN, Banerjee S, Nautiyal J, et al. Curcumin synergizes with resveratrol to inhibit colon cancer. Nutr Cancer 2009; 61:544-53. Based on CI values, the extent of synergism/antagonism may be determined.

A further data set relates to MDA-MB-231 cells. Put plainly: MTT growth assay and CalcuSyn synergy analysis in MDA-MB-231 cells. In kind it is cell-based, human. Here is the method:
as §1, §4

Data set [6] concerns breast cancer cells (MDA-MB-468, SKBr-3, MDA-MB-453, and MDA-MB-231). Put plainly: MTT growth assay in four breast cancer cell lines. In kind it is cell-based, human. The settings on record: breast cancer cells expressing varying levels of EGFRs; FIGS. 13B and 13C. As for the experimental part: as §1
The next data set has as its system MDA-MB-468 xenografts. Nature of the data set: MDA-MB-468 xenografts in SCID mice, tumor growth. In kind it is in vivo. Here is the method: Severe combined immunodeficient mice xenografts of MDA-MB-468 cells included the following aspects. […] When tumor burden reached 1,500 to 2,000 mg, mice were euthanized. The tumors were removed, cut into 20 to 30 mg fragment, and subsequently transplanted (s.c.) bilaterally into similarly conditioned 28 animals. […] Treatment was started on day 7 and continued until day 23. Animals and tumor burden were followed for up to 55 days. Tumor measurements were carried out at multiple time points during the experimental period. Mice were weighed and monitored for signs of toxicity. Tumor weights in SCID mice were estimated as tumor weight (mg)=(A×B2)/2, where A and B are the tumor length and width (in mm), respectively. […] Biochem Biophys Res Commun 2009; 378:344-7.

The nature of data set [7]: Immunohistochemical detection of EBIP (V5 antibody) in tumor remnants. Type of data set: in vivo, SCID mice. Particulars: end of the 55-day period; V5 antibody staining; FIG. 17A. The text has this:
Immunohistochemical analysis included the following aspects. […] Biochem Biophys Res Commun 2009; 378:344-7.

Data set [8] addresses T3, EGFR. Nature of the data set: Coimmunoprecipitation of EBIP with EGFR in MDA-MB-468 cells after TGF-α induction. Type of data set: binding. The arrangement: endogenous in cells; host or cells: MDA-MB-468. Particulars: MDA-MB-468 cells preincubated with EBIP, induced with TGF-α; FIG. 12C. As for the experimental part: FIG. 12: Panel A is a schematic representation of (i) full-length hEGFR and four different plasmid constructs of (ii) rat ERRP (amino acids 1-478), (iii) rat EGFR ectodomain (ERRP without U region; referred to as ERRP-448), (iv) hEGFR ectodomain (referred to as hEGFR-501), and (v) hEGFR ectodomain fused with U region (referred to as hEGFR-448+U or EBIP). […] Recombinant proteins containing both His and V5 tags were purified using His tag and immunoblotted with V5 antibody. […] After 8 h of incubation with EBIP, MDA-MB-468 cells, which were serum starved, were induced with TGF-α. The cell lysates were immunoprecipitated with EGFR antibodies overnight and the immunoprecipitates were subsequently subjected to Western blot analysis with V5 antibody for EBIP detection.
In the absence of 0.5 mmol/L CuSO4, no expression of EBIP was detected (FIG. 12B). Because EBIP contains the ligand binding ectodomain of hEGFR, we postulated that it will sequester the ligand, leading to heterodimerization with members of the EGFRs.

The target of data set [9] is T3, EGFR. Put plainly: EGFR phosphorylation in MDA-MB-468 cells (Western blot). Particulars: dasatinib 1 μmol/L, EBIP 2.5 μg/mL, FIG. 15C.
Another data set concerns the target phospho-EGFR (Homo sapiens, UniProt P00533). Nature of the data set: Phospho-EGFR (Tyr1173) immunohistochemistry of tumor remnants. Particulars: day 55, FIG. 20.

The text below walks through data of patent US20120121589A1, “MODIFIED EGFR ECTODOMAIN” (WAYNE STATE UNIVERSITY, priority 2009, published 2012).

Entries after “also recorded” stand apart in the source; their conditions may differ.

Broadly, the inhibition of growth is the change of the read-out against control, counted positive when it falls. Higher therefore signals a response far below the control.

Turning to “hEGFR-501: human EGFR ectodomain that includes amino acids 1-501 but lacks the U region (SEQ ID NO: 13) [reference compound]”, in data set [1], the “inhibition of growth (MTT)” value was “only marginally effective”. For the same molecule, the “attenuation of TGF-α-induced phosphorylation of Tyr416 of c-Src” value in the data set with c-Src is reported as “less attenuation”. Further, the “inhibition of growth of SKBR-3 cells” value in [2] is on record as “neither rEGFR-447 nor hEGFR-501 caused any apparent change in the growth”. In addition, in the data set with HER-2, the “inhibition of heregulin-induced phosphorylation/activation of HER-2” value is recorded as “neither rEGFR-447 nor hEGFR-501 is effective; also recorded: neither rEGFR-447 nor hEGFR-501 re effective”. The “inhibition of heregulin-induced phosphorylation/activation of HER-3” value in the data set with HER-3 is recorded as “neither rEGFR-447 nor hEGFR-501 is effective; also recorded: neither rEGFR-447 nor hEGFR-501 re effective”. In the data set with EGFR [3], the “attenuation of TGF-α-induced tyrosine phosphorylation of EGFR (amino acid 845)” value is on record as “do not attenuate”.

B1: EBIP: human EGFR ectodomain amino acids 1-448 fused at the C-terminus to the 30-amino acid U region of rat ERRP (SEQ ID NO: 14) (protein, listed as Homo sapiens)
chain: MRPSGTAGAALLALLAALCPASRALEEKKVCQGTSNKLTQLGTFEDHFLSLQRMFNNCEVVLGNLEITYVQRNYDLSFLKTIQEVAGYVLIALNTVERIPLENLQIIRGNMYYENSYALAVLSNYDANKTGLKELPMRNLQEILHGAVRFSNNPALCNVESIQWRDIVSSDFLSNMSMDFQNHLGSCQKCDPSCPNGSCWGAGEENCQKLTKIICAQQCSGRCRGKSPSDCCHNQCAAGCTGPRESDCLVCRKFRDEATCKDTCPPLMLYNPTTYQMDVNPEGKYSFGATCVKKCPRNYVVTDHGSCVRACGADSYEMEEDGVRKCKKCEGPCRKVCNGIGIGEFKDSLSINATNIKHFKNCTSISGDLHILPVAFRGDSFTHTPPLDPQELDILKTVKEITGFLLIQAWPENRTDLHAFENLEIIRGRTKQHGQFSLAVVSLNITSLPWQVPSLSWQAVTRPLHPLAQNRVSWDTGP
Turning to B1, the inhibition of growth in data set [1] (dose of 20 μg/mL, vs corresponding controls, FIG. 18) was 70%. The “inhibition of growth (MTT)” value in data set [1] was “inhibit the growth of colon cancer HCT-116 cells in a dose dependent manner”. For the same molecule, the “attenuation of TGF-α-induced phosphorylation of Tyr416 of c-Src” value in the data set with c-Src is “abrogated”. Also, the “attenuation of TGF-α-induced phosphorylation of Erks” value in data set [4] (FIG. 6, listed as hEGFR+U) is given as “greatly attenuated”; in [4] (FIG. 6, listed as hEGFR-448), “not”. In addition, in [2], the “inhibition of growth of SKBR-3 cells” value is listed as “markedly inhibit the growth in a dose-dependent manner”. Also, the “inhibition of heregulin-induced phosphorylation/activation of HER-2” value with HER-2 is “inhibited; also recorded: able to inhibit; also recorded: abrogates this stimulation”. Moreover, the “inhibition of heregulin-induced phosphorylation/activation of HER-3” value in the data set with HER-3 is given as “inhibited; also recorded: able to inhibit; also recorded: abrogates this stimulation”. Also, the “tumor growth of SKBR xenografts” value in data set [5] was “inhibits growth”. Further, the “EBIP (Fa)” value is listed as 0.302 with MDA-MB-468 cells (EBIP 1.25 μg/ml); 0.385 in the data set with MDA-MB-468 cells (EBIP 2.5 μg/ml); 0.435 in the data set on MDA-MB-468 cells (EBIP 5.0 μg/ml); 0.475 in the data set on MDA-MB-468 cells (EBIP 10.0 μg/ml); 0.105 in the data set on MDA-MB-231 cells (EBIP 1.25 μg/ml); 0.223 in the data set on MDA-MB-231 cells (EBIP 2.5 μg/ml). The “EBIP (Fa)” value is 0.387 with MDA-MB-231 cells (EBIP 5.0 μg/ml) and 0.535 in the data set with MDA-MB-231 cells (EBIP 10.0 μg/ml). For the same molecule, in the data set with MDA-MB-468 cells (immunoaffinity-purified protein, FIG. 12D), the “inhibition of growth of MDA-MB-468 cells” value is recorded as “equally effective”. Besides, the “inhibition of growth of breast cancer cells, single agent” value in data set [6] was “inhibited the growth; also recorded: effective”. Further, the “tumor growth, significance of inhibition” value with MDA-MB-468 xenografts (P<0.05, FIG. 16, Table 3) is “significantly reduced tumor growth”. Besides, the “tumor weight at the end of 55 days, Mean ± SD” value in the data set on MDA-MB-468 xenografts (day-55, dasatinib 10 mg/kg gavage and/or EBIP 25 μg/mouse s.c., every other day, day 7 to 23) was found to be 326 ± 304 mg. In the data set on MDA-MB-468 xenografts (vs vehicle-treated controls, dasatinib 10 mg/kg gavage and/or EBIP 25 μg/mouse s.c., every other day), the “inhibition (suppression) of tumor growth” value is recorded as “about 59%”. Also, in [7], the “presence of EBIP in the tumors” value was “significant expression of EBIP was observed in the tumors”. Also, in the data set with EGFR [3], the “attenuation of TGF-α-induced tyrosine phosphorylation of EGFR (amino acid 845)” value is “greatly abrogates this stimulation”. In addition, in the data set with EGFR [8], the “coimmunoprecipitation with EGFR” value is “coimmunoprecipitate with EGFR”. Besides, in the data set with EGFR [9], the “inhibition of phosphorylation/activation of EGFR” value is listed as “inhibited the phosphorylation”. In addition, the “phospho-EGFR (Tyr1173) immunoreactivity in tumor remnants” value with phospho-EGFR was “no detectable immunoreactivity for phospho-EGFR”.
